Reference: PubChem BioAssay AID1259310 (The Scripps Research Institute Molecular Screening Center, 2017)
Only a part is listed here, and it is no random draw. Activity calls are given as the source filed them. Cut-off read from the data, not from the text of the source: active = normalized activity above about 1.9%; inactive = the rest.

Amino acid sequences for entries named in this document (tags omitted).
UniProt Q969H0, whole entry, looked up: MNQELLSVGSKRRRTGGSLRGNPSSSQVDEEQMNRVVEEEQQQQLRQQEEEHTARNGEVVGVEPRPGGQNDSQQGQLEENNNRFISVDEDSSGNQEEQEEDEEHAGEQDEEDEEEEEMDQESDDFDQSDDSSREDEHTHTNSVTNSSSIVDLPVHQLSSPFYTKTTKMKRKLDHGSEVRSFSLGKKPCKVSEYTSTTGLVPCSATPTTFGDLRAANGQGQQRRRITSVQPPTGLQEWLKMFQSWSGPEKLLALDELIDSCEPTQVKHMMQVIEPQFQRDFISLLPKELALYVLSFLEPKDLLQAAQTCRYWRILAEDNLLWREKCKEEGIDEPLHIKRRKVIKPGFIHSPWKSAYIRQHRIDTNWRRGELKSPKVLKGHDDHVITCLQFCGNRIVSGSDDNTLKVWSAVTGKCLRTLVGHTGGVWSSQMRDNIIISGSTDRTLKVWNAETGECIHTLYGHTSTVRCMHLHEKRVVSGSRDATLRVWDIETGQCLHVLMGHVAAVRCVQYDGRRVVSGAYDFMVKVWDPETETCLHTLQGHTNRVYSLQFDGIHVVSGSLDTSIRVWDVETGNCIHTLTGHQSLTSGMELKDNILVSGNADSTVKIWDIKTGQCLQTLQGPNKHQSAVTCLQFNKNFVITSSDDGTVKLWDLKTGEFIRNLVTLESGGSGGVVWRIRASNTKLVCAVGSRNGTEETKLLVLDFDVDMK

target: F-box/WD repeat-containing protein 7 (Homo sapiens) (UniProt Q969H0); assay: FBW7 E3 ligase activators, primary screen, biochemical, AlphaScreen, human (AID 1259310); conditions: AlphaScreen FBW7–phospho-cyclin E peptide binding, activator screen; at 26.1 µM; stronger effect = higher value;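 note: purified mutant Fbw7 with reduced substrate affinity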

| Structure (SMILES) | normalized activity (activation) |
| --- | --- |
| COC(=O)N(c1ccc(OC)cc1)P1(=S)OCC(C)O1 (centres undefined) | inactive: -0.23% |
| O=[N+]([O-])c1cc([N+](=O)[O-])c(Nc2ccccc2)c([N+](=O)[O-])n1 | inactive: 0.1% |
| O=[N+]([O-])c1ccc2no[n+]([O-])c2c1 | inactive: 0.01% |
| O=C(NNC(=O)c1ccncc1)NP1Oc2ccccc2O1 | inactive: -0.3% |
| Nc1nonc1OCCOc1nonc1N | inactive: 0.27% |
| CCCOc1ccc(S(=O)(=O)N(CCCl)CCCl)cc1 | inactive: 0.55% |
| CCOP(=S)(OCC)SCC(=O)NC(C)C(=O)O (centres undefined) | inactive: -0.28% |
| O=P1(Nc2nc(-c3ccccc3)cs2)C=C(c2ccccc2)OC(c2ccccc2)=C1 | inactive: -0.02% |
| O=C(c1cccnc1)N(Cc1ccco1)C1CCN(CCc2ccc(Cl)cc2)CC1 | inactive: 0.03% |
| O=C(Cn1cnc([N+](=O)[O-])n1)NCCO[N+](=O)[O-] | inactive: 0.03% |
| CC(C)OP(=O)(OC(C)C)C(=O)c1ccc(F)cc1 | inactive: 0.22% |
| O=[N+]([O-])c1cc([N+](=O)[O-])c2[nH]ncc2c1 | inactive: 0.08% |
| CCOP(=O)(OCC)C(=O)c1ccc(OC)cc1 | inactive: -0.06% |
| CC(C)OP(=O)(NC(C)(C)C)C(Cl)Cl (centres undefined) | inactive: -0.18% |
| O=[N+]([O-])c1ccc(/C=C/C=N/Nc2ccc([N+](=O)[O-])cc2[N+](=O)[O-])cc1 | inactive: 0.05% |
| CCOP(=O)(OCC)SCC(=O)NCC(=O)O | inactive: 0.08% |
| CCOP(=S)(OCC)C1(C#N)CCCC1 | inactive: 0.21% |
| O=C(Oc1ccc([N+](=O)[O-])cc1[N+](=O)[O-])c1ccc(Cl)cc1[N+](=O)[O-] | inactive: -0.08% |
| OP1(c2ccccc2)=NC(c2ccccc2)=NC(C(Cl)(Cl)Cl)=N1 (centres undefined) | inactive: 0.04% |
| O=C(c1cccnc1)N(Cc1ccco1)C1CCN(CCc2cccs2)CC1 | inactive: 0.11% |

| Structure (SMILES) | normalized activity (activation) |
| --- | --- |
| O=[N+]([O-])c1ccc(N/N=C/c2cc3c(cc2[N+](=O)[O-])OCO3)c([N+](=O)[O-])c1 | inactive: -0.18% |
| CC(=O)N(Cc1cccnc1)C1CCN(CCc2ccccn2)CC1 | inactive: -0.07% |
| ICC1CN=C(Nc2ncccn2)S1 (centres undefined) | inactive: -0.32% |
| CCCOP(=O)(OCCC)O/C(C)=C/SC#N | inactive: 0.75% |
| c1ccc2nc(-c3nc4ccccc4[nH]3)ccc2c1 | inactive: 0.31% |
| CC(C)OP(=O)(OC(C)C)C(=O)c1ccccc1 | inactive: 0.16% |
| BrCC1CN=C(Nc2ccccc2Br)S1 (centres undefined) | inactive: 0.38% |
| O=C(COC(=O)C(O)(c1ccccc1)c1ccccc1)NCC(F)(F)F | inactive: 0.01% |
| O=[N+]([O-])c1ccc(C(O)C(CO)Nc2ccc([N+](=O)[O-])cc2[N+](=O)[O-])cc1 (centres undefined) | inactive: 0.01% |
| Cc1cccc(NP(=O)(c2ccccc2)c2ccccc2)n1 | inactive: -0.05% |
| COP(=O)(OC)C(NC(=O)c1ccc(C)cc1)=C(Cl)Cl | inactive: 0.2% |
| COc1ccc(CCN2CCC(N(Cc3cccnc3)C(C)=O)CC2)cc1 | inactive: -0.05% |
| CN(C)P1(=O)Nc2ccccc2S1 (centres undefined) | inactive: -0.06% |
| Cc1cc(=O)[nH]c(N[N+](=O)[O-])n1 | inactive: -0.22% |
| CCOP(=S)(OCC)SCC(=O)NC(C)C(=O)NC (centres undefined) | inactive: -0.21% |
| COc1ccc(C)cc1NC(=O)N(Cc1ccco1)C1CCN(CCc2ccccn2)CC1 | inactive: -0.01% |
| O=C(Nc1nnc(-c2cccc([N+](=O)[O-])c2)s1)c1ccc([N+](=O)[O-])cc1[N+](=O)[O-] | inactive: -0.08% |
| CC1CN(c2ccc([N+](=O)[O-])cc2[N+](=O)[O-])CCN1c1ccc([N+](=O)[O-])cc1[N+](=O)[O-] (centres undefined) | inactive: -0.08% |
| CC(C)COP(=O)(Nc1cccc(F)c1)OCC(C)C | inactive: 0.02% |
